# Laboratory results as given in article PMC4844575, “The influence of different metal-chelate conjugates of pentixafor on the CXCR4 affinity” (EJNMMI Research, 2016).
# Amino acid sequences for entries named in this document (tags omitted).
# UniProt P61073, whole entry, looked up: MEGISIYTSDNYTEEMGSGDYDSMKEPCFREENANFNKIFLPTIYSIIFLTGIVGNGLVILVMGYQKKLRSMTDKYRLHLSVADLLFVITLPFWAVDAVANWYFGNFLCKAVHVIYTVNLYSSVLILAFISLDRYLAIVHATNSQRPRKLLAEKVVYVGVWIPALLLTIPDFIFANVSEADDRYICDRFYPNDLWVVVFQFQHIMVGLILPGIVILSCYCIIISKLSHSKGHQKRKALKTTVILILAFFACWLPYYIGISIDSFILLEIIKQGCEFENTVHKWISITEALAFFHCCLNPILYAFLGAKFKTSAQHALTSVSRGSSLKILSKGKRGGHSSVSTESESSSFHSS
# Molecular target: CXCR4 (Homo sapiens, UniProt P61073)
# Assay: competitive binding assay on Jurkat cells with [125I]FC131 as radioligand
# Conditions: Jurkat T-cells, 4 × 10^5 cells per vial, app. 0.1 nM [125I]FC131, 120 min incubation, mean ± SD (n = 3)
smiles,measurement,value
CN1C(=O)[C@@H](Cc2ccc(O)cc2)NC(=O)CNC(=O)[C@H](Cc2ccc3ccccc3c2)NC(=O)[C@H](CCCNC(=N)N)NC(=O)[C@H]1CCCNC(=O)c1ccc(CNC(=O)CN2CCN(CC(=O)O)CCN(CC(=O)O)CCN(CC(=O)O)CC2)cc1,IC50,0.0248 µM
